Among the data in the OPERA property sets (Mansouri et al. 2018) are logP, solubility and log10 OH rate constant (cm³/molecule/s) values, retold here.

The structures appear in SMILES notation. Values after ≈ are worked out from the molar mass of the structure shown.

Details in the first series: not given
The term logP denotes a log measure of how a compound divides between an organic and an aqueous phase. The low end stands for a more hydrophilic compound, the high end for a more lipophilic compound. The molecule `CC1(C)CC(NC(=O)NP(=O)(N2CC2)N2CC2)CC(C)(C)N1` yielded a logP of -0.8.
`CC1(C)CN1P(=O)(NC(=O)NC12CC3CC(CC(C3)C1)C2)N1CC1(C)C` (stereo not given) registered a logP of 1.98.
`O=[N+]([O-])OCC(CO)O[N+](=O)[O-]` (stereo not given): the logP was determined as 0.83.
The molecule `CC(C)OP(=O)(F)OC(C)C` gave a logP of 1.17.
Still for that read-out and setting: as for `CC1(C)CC(NC(=O)NP(=O)(N2CC2(C)C)N2CC2(C)C)CC(C)(C)N1O` (stereo not given), the figure is 0.48; as for `CC1(C)CC(NC(=O)NP(=O)(N2CC2)N2CC2)C(C)(C)N1O` (stereo not given), -0.6.
`CN(C)P(C)(=O)N(C)C` showed a lipophilicity (logP) of -0.67.
The same measure, in the same setting: as for `O=[N+]([O-])c1cc(Cl)c(Nc2ncc(C(F)(F)F)cc2Cl)c([N+](=O)[O-])c1`, the figure is 3.74.
A word on the solubility: it is the dissolved amount per volume that the medium holds. A high value points to a readily soluble substance. Consider `Cc1c([N+](=O)[O-])cccc1[N+](=O)[O-]`, for which the solubility turned out to be 0.999 mM (≈ 182 µg/mL).
The molecule `O=[N+]([O-])c1ccc([N+](=O)[O-])c(O)c1` displayed a solubility of 2.09 mM (≈ 385 µg/mL). This solubility is about 2.1-fold higher than that of the molecule before.
Turning to `Cc1ncc([N+](=O)[O-])n1CCO[N+](=O)[O-]`, the log partition coefficient (logP) was found to be 0.81.
Same read-out and setting: as for `O=[N+]([O-])c1cc([N+](=O)[O-])c(Nc2ncc(Cl)cc2Cl)c(C(F)(F)F)c1`, the figure is 3.47.
In turn, `Cc1ccc([N+](=O)[O-])cc1[N+](=O)[O-]` displayed a solubility of 1.48 mM (≈ 270 µg/mL).
Still for that read-out and setting: as for `CP(=O)(O)O`, the figure is 208 mM (≈ 20000 µg/mL).
The molecule `O=[N+]([O-])c1cnc(Nc2c(Cl)cc([N+](=O)[O-])cc2[N+](=O)[O-])c(Cl)c1` yielded a log partition coefficient (logP) of 2.6.
On the same count and under the same terms, as for `CCCOP(C)(=S)OCCC`, the figure is 3.26.
Still for that read-out and setting: as for `Cc1c(O)ccc([N+](=O)[O-])c1[N+](=O)[O-]`, the figure is 2.86.
With `CC(C)O[N+](=O)[O-]`, the solubility is 34.7 mM (≈ 3650 µg/mL).
Regarding `COP(C)(=O)OC`, the lipophilicity (logP) was -0.61.
On the same count and under the same terms, as for `CC1(C)CC(NC(=O)NP(=O)(N2CC2(C)C)N2CC2(C)C)CC(C)(C)N1` (stereo not given), the figure is 0.55; as for `N#Cc1cc2ccccc2nc1Nc1c([N+](=O)[O-])cc([N+](=O)[O-])cc1C(F)(F)F`, 3.88.
As for `CC(C)N(CCO)C(C)C`, the solubility was 82.6 mM (≈ 12000 µg/mL).
The molecule `CCOP(=O)(CC)OCC` registered a logP of 0.66.
`O=[N+]([O-])OCC(O)CO[N+](=O)[O-]` registered a logP of 0.71.
Molecule `O=[N+]([O-])c1cccc([N+](=O)[O-])c1` yielded a solubility of 3.17 mM (≈ 533 µg/mL).
`O=[N+]([O-])c1cnc(Nc2c([N+](=O)[O-])cc([N+](=O)[O-])cc2C(F)(F)F)c(Cl)c1`: the logP came out at 2.8.
For `CC1(C)CC(NC(=O)NP(=O)(N2CC2(C)C)N2CC2(C)C)C(C)(C)N1O` (stereo not given), the lipophilicity (logP) is 0.51.
On to `COP(=O)(OC)N(C)C`, for which the log10 OH rate constant (cm³/molecule/s) was -10.5.
Molecule `CCCCOP(C)(=O)OCCCC` registered a log partition coefficient (logP) of 3.26.
Molecule `Cc1nc(Nc2c([N+](=O)[O-])cc([N+](=O)[O-])cc2C(F)(F)F)c(C#N)cc1C#N` yielded a lipophilicity (logP) of 2.8.
Still for that read-out and setting: as for `CCCCCOP(C)(=O)OCCCCC`, the figure is 3.74.
Regarding `CC(C)OP(C)(=O)OC(C)C`, the lipophilicity (logP) is 1.03 and the solubility was 888 mM (≈ 160000 µg/mL).
`CCOP(C)(=S)OCC` registered a log partition coefficient (logP) of 2.08.
On to `O=C(NC12CC3CC(CC(C3)C1)C2)NP(=O)(N1CC1)N1CC1`, for which the lipophilicity (logP) came to 1.81.
In turn, `Cc1c([N+](=O)[O-])cc([N+](=O)[O-])cc1[N+](=O)[O-]` returned a solubility of 0.572 mM (≈ 130 µg/mL).
On to `CCO[N+](=O)[O-]`, for which the log10 OH rate constant (cm³/molecule/s) was -12.7.
On to `C1CSCCS1`, for which the log partition coefficient (logP) amounted to 0.77 and the solubility was found to be 25 mM (≈ 3000 µg/mL).
The molecule `CCCO[N+](=O)[O-]` returned a solubility of 31.3 mM (≈ 3290 µg/mL). That is a millimolar value.
In turn, `O=[N+]([O-])N1CN([N+](=O)[O-])CN([N+](=O)[O-])CN([N+](=O)[O-])C1` returned a log partition coefficient (logP) of 0.16.
In turn, `O=[N+]([O-])OCCOCCO[N+](=O)[O-]` had a logP of 0.98 and a solubility of 19.9 mM (≈ 3900 µg/mL).
`CCCCCCCCOP(C)(=O)OCCCCCCCC` displayed a logP of 6.13.

The same series, now with this note: experimental values compiled from the literature.
In turn, `O=C1c2cc([N+](=O)[O-])cc([N+](=O)[O-])c2-c2c1cc([N+](=O)[O-])cc2[N+](=O)[O-]` displayed a logP of 2.4.
